Shown are actives, neighbours in structure and some others; about 2.1% of the full set was active somewhere.
Nrf2 inh = inhibitors of Nrf2 signaling; Potency, µM (highest dose often 46 µM), for the others: top-dose activity change, negative = inhibition, usual class: inhibitors; AID 504444; hit rate 2.1% among 360,000; A549 ARE-Fluc reporter, luciferase luminescence, 18-24 h; note: potency is the fitted concentration of half-maximal effect; % is set by controls: 0 for no effect and ±100 for the full control effect; nearly all actives have a fitted effect of over 60% in size
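A549 ARE_Fluc cells (5000/well, 5% FBS OPTI-MEM) pre-incubated 2 h, then treated with compounds 18-24 h at 37C/5% CO2 in concentration-response. CellTiter-Fluor viability read first; BugLite luciferase luminescence after 15 min at room temperature gives Nrf2 activity.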
miR-21 FLuc = raises the signal of a miR-21 reporter | AID 2288 | 340,000 tested, under 10 active | Potency, µM (series often up to 38.3 µM), without a hit: at the highest dose reporter change, positive = more light | HeLa miR-21 FLuc reporter, luciferase, 48 h; active = well fitted rising curve with a large enough effect; inconclusive = small, poorly fitted or top-dose-only effect; inactive = no such curve, though single readings can be large or run the other way;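 further: % of control where 0% means no effect; miR-21 action dims this reporter so a rising signal means less miR-21 action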
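HeLa miR-21-FLuc reporter line, endogenous miR-21; 2000 cells/well in DMEM/10% FBS; compound titration up to ~40uM final, 48 h, 37 degree Celsius; luciferase detection reagent, 15 min lysis, CCD luminescence.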
A549 tox = A549 cytotoxicity, counter-screen for Nrf2 inhibitors; A549 ARE-Fluc cells, CellTiter-Fluor viability, 18-24 h; Potency, µM (doses to about 46 µM), without a hit: at the top dose activity change, negative = cytotoxicity, hits mostly inhibitors; hit rate 0.16% among 390,000; AID 504648; note: potency is the fitted concentration of half-maximal effect; % is set by controls: 0 for no effect and ±100 for the full control effect
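A549 ARE-Fluc cells in 5% FBS OPTI-MEM, 5000 cells/well, rested 2 h then exposed to compounds in concentration-response for 18-24 h at 37 °C. Viability by CellTiter-Fluor fluorescence (Ex 405/Em 525) after 30 min; luciferase luminescence (BugLite, 15 min, RT) read afterwards.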
GRP78 ERSR act = ER stress response induction in glioma | U87-MG GRP78 promoter luciferase reporter, 16 h | Potency, µM, for inactives: at the top dose activation, hits mostly activators | hit rate 0.02% among 420,000 | AID 602332; note: potency is the fitted concentration of half-maximal effect; series mostly up to about 76 µM; % of control where 0% means no effect; nearly all actives have a fitted effect of over 35% in size
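Stably transfected U87-MG human glioma cells carrying a GRP78-based luminescent sensor were seeded at 1000 cells/well, pin-dosed with compounds and incubated 16 h. Luciferase reagent was then added, and end-point luminescence was read after 10 min at room temperature.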
TSG101-PTAP inh = blocks PTAP/TSG101 interaction to inhibit HIV-1 budding. Fluorescence polarization, FITC-PTAP peptide / Tsg101 binding. 340,000 tested, under 10 active. AID 493005. Potency, µM (series often up to 115 µM), for inactives: at the highest dose activity change, negative = inhibition, hits mostly inhibitors; active = well fitted inhibition curve with a large enough effect in the main read-out, with a control signal flat, not every such curve was filed as active; inconclusive = small, poorly fitted or top-dose-only effect, or effect the other way, or a change in a side signal; inactive = no such curve, though single readings can be large or run the other way; note: potency is the fitted concentration of half-maximal effect; % of control where 0% means no effect
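Tsg101 binding domain (10 uM final) was mixed with compound and a FITC-labeled PTAP peptide (50 nM final) in HEPES pH 7.5 buffer with NaCl, Tween 20, EDTA and TCEP; fluorescence polarization was read after 20 min at r.t.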
Nrf2 ARE act = activates Nrf2 signaling; AREc32 ARE-luciferase reporter (MCF7-derived line), luminescence, 24 h; Potency, µM (top dose mostly 46.1 µM), without a hit: at the highest dose activation, usual class: activators; hit rate 0.31% among 410,000; note: potency is the fitted concentration of half-maximal effect; % of control where 0% means no effect; nearly all actives have a fitted effect of over 65% in size
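AREc32_Fluc, 1000 cells/well, OPTI-MEM + 5% FBS, o/n 37 deg C 5% CO2; 23 nL cpd by pin tool, 24 hr; Steady-Glo 30 min RT, luminescence.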
* marks the source's active call; other numbers are inactive results; ? = inconclusive; · = no result given. Unless noted, calls come from the whole dose curve; as a rule, active = well fitted curve in the direction sought with a large enough effect; inconclusive = small, poorly fitted or top-dose-only effect, or another doubt; inactive = no such curve, though single readings can be large; an effect the other way counts as inactive or inconclusive.

SMILES | Nrf2 inh | miR-21 FLuc | A549 tox | GRP78 ERSR act | TSG101-PTAP inh | Nrf2 ARE act
C=CCSc1nnc(C2CCCN(Cc3ccccc3O)C2)n1C (configuration not stated) | · | · | · | -2% | · | ·
COc1ccc(C(=O)NCc2nnc(SC)n2-c2ccccc2C)c(OC)c1OC | · | · | · | -5% | · | ·
O=C1CC[C@@H](C(=O)NCC2Cc3cc(Cl)cc(-c4ccc5[nH]ccc5c4)c3O2)N1 (some centres not stated) | · | · | · | -2% | · | ·
Brc1ccc2ncnc(Nc3ccc(N4CCOCC4)cc3)c2c1 | 12µM* | 18% | -18% | -4% | -1% | 2%
Cc1cc2c(s1)c1cnn(Cc3cccc4cccnc34)c(=O)c1n2C | -9% | · | -10% | · | · | ·
COc1cc(F)c(S(=O)(=O)N2CCN(S(=O)(=O)c3ccc(NC(C)=O)cc3)CC2)c(F)c1 | -6% | · | 6% | · | · | ·
COCC(C)n1c(C)cc(C(=O)COc2ccc(N(C)S(=O)(=O)c3ccc(NC(C)=O)cc3)cc2)c1C (configuration not stated) | -7% | · | 2% | 0% | -1% | 10%
C=CCn1c(C)cc(C(=O)COc2ccc(N(C)S(=O)(=O)c3ccc(NC(C)=O)cc3)cc2)c1C | 16µM* | · | -23% | -6% | 1% | 25%
COc1ccc(CN(Cc2ccccc2)C(=O)c2ccc(NC(C)=O)cc2)cc1COc1ccc(NC(C)=O)cc1 | ? | · | -4% | · | · | ·
COc1ccc(C2Nc3ccccc3C(=O)N2Cc2cccc(Cl)c2)cc1COc1ccc(NC(C)=O)cc1 (configuration not stated) | 23µM* | · | -16% | · | · | ·
COc1ccc(CN(Cc2ccccc2)C(=O)c2ccccc2)cc1COc1ccc(NC(C)=O)cc1 | 23µM* | · | -18% | · | · | ·
CCCN1C(=O)c2ccccc2NC1c1ccc(OC)c(COc2cccc(C)c2C)c1 (configuration not stated) | 26µM* | · | -8% | -2% | · | ·
Cc1ccccc1NC(C)C(=O)N/N=C/c1ccccc1OCc1cccc(Br)c1 (configuration not stated) | 15µM* | 6% | -25% | -4% | 0% | 0%
COc1ccc(C2C3C=CCC(c4ccccc4)C3C(=O)N2Cc2ccccc2)cc1Cl (configuration not stated) | 21µM* | · | ? | ? | · | ·
COc1ccc(-c2c(C3C4C=CCC(C)C4C(=O)N3Cc3ccccc3)ccc3ccccc23)cc1OC (configuration not stated) | 21µM* | · | -15% | -3% | · | ·
COc1ccc(-c2c([C@H]3[C@H]4C=CC[C@@H](C)[C@@H]4C(=O)N3Cc3ccccc3)ccc3ccccc23)cc1 | ? | 25% | -12% | -4% | · | 7%
Clc1ccc(-n2ncc3c(N4CCCCCC4)ncnc32)cc1 | ? | 12% | 5% | -10% | 2% | -4%
Brc1cc(Br)c2ncnc(N3CCCCC3)c2c1 | 26µM* | -8% | ? | 0% | -3% | 0%
Cc1nn(C)c(N)c1[N+](=O)[O-] | 0% | -1% | -4% | 0% | -3% | 0%
Cc1nn(C)c(Sc2ccccc2N)c1[N+](=O)[O-] | 8% | -24% | -1% | 0% | -3% | 14µM*
CCn1c(=N)n(CC(=O)c2ccco2)c2ccccc21 | -19% | 11% | -26% | 9% | -4% | 10µM*
CCn1c2ccccc2c2cc(NC(=O)c3ccco3)ccc21 | 21µM* | -34% | -18% | 2% | -2% | 2%
CCn1c2ccccc2c2cc(NC(=O)CSc3nnc(C4CC4)n3Cc3ccco3)ccc21 | 18µM* | 3% | -12% | -1% | -4% | 4%
COc1ccc(CN2CCOc3ccc(CN4CCCCC4CO)cc3C2)c(OC)c1 (configuration not stated) | · | · | · | -2% | · | ·
O=C(CCl)c1ccc2c(c1)CCCC2 | · | · | · | 6% | · | ·
CCCCCNCc1ccc(Cl)cc1 | -1% | 3% | 1% | -7% | -2% | 0%
CCCCCCC[N+](CC)(CC)CCCCc1ccc(Cl)cc1 | 16µM* | · | -7% | -3% | 1% | -1%
CCc1ccc(-n2nnc(-c3nsc(NC(=O)c4ccccc4Cl)n3)c2C)cc1 | 18µM* | 12% | -5% | -2% | · | 5%
Cc1cc(C)cc(-n2nnc(-c3nsc(NC(=O)c4ccccc4Cl)n3)c2C)c1 | -17% | -26% | -2% | -7% | · | 0%
COc1cc(F)cc(F)c1[S+](=O)([O-])N1CCN([S+](=O)([O-])c2ccc3c(c2)OCCO3)CC1 | 8% | · | -5% | · | · | ·
CCCCCCCCCC[n+]1cccc2cc(Br)ccc21 | · | · | · | -4% | · | ·
CCCCCCCCCCCCCCCC[n+]1cccc2ccccc21 | 26µM* | ? | -17% | -15% | 0% | -3%
CCCCCCCCC[n+]1cccc2c3ccccc3ccc21 | 9.2µM* | ? | ? | -15% | 2% | 6%
Cc1cc(C)n(-c2nc(NC(C)C)nc(NC(C)(C)C)n2)n1 | 3% | · | -4% | -2% | · | ·
Cc1ncc2c(c1CNC(=O)c1ccc3c(c1)OCO3)CCN(C(=O)C1Cc3ccccc3O1)C2 (configuration not stated) | · | · | · | -3% | · | ·
COc1ccc(OC)c(/C=C/c2c3ccccc3cc[n+]2C)c1 | · | · | · | -3% | · | ·
COc1ccc(CCNC(=O)COc2ccc(S(=O)(=O)NC3CCCCC3)cc2Cl)cc1 | 21µM* | 12% | ? | -2% | -7% | 0%
Cc1ccc(C(=O)NCc2cccnc2)cc1S(=O)(=O)N1CCCCCC1 | 8.2µM* | 1% | -4% | -2% | -3% | 0%
O=C(O)c1ccc(Cl)c(S(=O)(=O)N2CCCCCC2)c1 | 26µM* | -9% | ? | -2% | -5% | 0%
Cc1ccc(C(=O)NCCC2=CCCCC2)cc1S(=O)(=O)N1CCCCC1 | 23µM* | · | ? | -1% | -2% | 7%
Cc1ccc(C(=O)Nc2cccnc2)cc1S(=O)(=O)N1CCCCC1 | 21µM* | -1% | -4% | 8% | -4% | 1%
COc1ccc(CCNC(=O)c2ccc(Cl)c(S(=O)(=O)N3CCCC3)c2)cc1 | 16µM* | · | -5% | -1% | -4% | -1%
COc1ccc(C(CNC(=O)c2ccc(Cl)c(S(=O)(=O)N3CCCC3)c2)N2CCCC2)cc1 (configuration not stated) | -4% | · | 1% | -3% | 0% | 0%
CC(C)c1ccc(C2C3=C(CC(C)(C)CC3=O)NC3=C2C(=O)c2ccccc23)cc1 (configuration not stated) | 23µM* | ? | 16µM* | -3% | -6% | 0%

Screens: PubChem, National Center for Advancing Translational Sciences (NCATS)
